A short description of series [1]: Particle size and PDI of LNPs (Malvern Zetasizer). The note with it: LNP of compound, cholesterol, DSPC, DMG-PEG2000 in molar ratio 50:38.5:10:1.5; encapsulated mRNA. How it is done: (§1) An mRNA stock solution was dispersed in a 20 mM acetic acid solution (pH 5.3) to a final concentration of 200 µg/mL (aqueous phase). The example compound, cholesterol, DSPC, and DMG-PEG2000 were mixed in a molar ratio of 50:38.5:10:1.5 to form a mixed lipid (oil phase). Flow rates of the aqueous phase and the oil phase were controlled to mix mRNA with the lipid mixture via T-junction mixing, to obtain LNP encapsulated mRNA. The encapsulated LNPs were diluted with a buffer solution and then concentrated by ultrafiltration. The diluent was replaced. Finally, the LNPs were concentrated to an mRNA concentration of 100 µg/mL, and the pH of the LNPs was adjusted to about 7.0-8.5. Finally, the total mRNA content and free mRNA content in the LNPs were measured by using a RiboGreen assay kit and 10% OTG as a demulsifier, and the encapsulation efficiency of the LNPs was calculated. The final LNP product was diluted with a diluent, added (1 ml) to a particle size cell, and placed on a Malvern Zetasizer instrument to measure the particle size of the LNPs.

The nature of series [2]: Encapsulation efficiency of mRNA-loaded LNPs (RiboGreen assay kit, 10% OTG as demulsifier). The conditions noted are these: LNP of compound, cholesterol, DSPC, DMG-PEG2000 in molar ratio 50:38.5:10:1.5; encapsulated mRNA. The method, then: as §1
For series [3], the system named is BALB/c mice. Put plainly: Delivery efficiency: luciferase expression after intramuscular injection of LNP-encapsulated luciferase mRNA (IVIS bioluminescence). The note with it: LNP with luciferase mRNA, intramuscular injection 0.25 mg/kg, 24 h, compared with Compound 2 and Compound NTX-C16 (FIG. 1). The method, then:
• 1. Luciferase mRNA was encapsulated with LNP formulations of Compounds 1 to 3, NTX-C16, and MC3. A method for preparing the LNP formulations and a method for encapsulating the mRNA are as described in Test Example 1. • 2. The encapsulated LNP formulations were intramuscularly injected into BALB/c mice (injection dose: 0.25 mg/kg muscle), with 5 mice in each group. • 3. The luciferase fluorescence expression intensity of each mouse was measured at 24 h. • 4. Measurement of fluorescence expression intensity: D-Luciferin sodium salt (dose: 150 mg/kg) was intraperitoneally injected into each mouse 10 min before measurement. Then the mouse was anesthetized with isoflurane and placed in an IVIS instrument for measurement using bioluminescence. • 5. The delivery efficiency of each compound was evaluated based on the fluorescence intensity results

The source of these data is EP4837902A1, “LIPID COMPOUND AND LIPID NANOPARTICLE FOR DELIVERY” (dated 2026).

Turning to `CCCCCCCCCCC(=O)OCCCCCCCCC1(CCCCCCCCOC(=O)C(CCCCCC)CCCCCCCC)OCC(CCCCN(C)C)O1` (centres unmarked), in series [1], the PDI was 0.1833 and the Particle size is reported as 136.8 nm. Moreover, the Encapsulation efficiency in series [2] is listed as 97.00%.
With `CCCCCCCCCCC(=O)OCCCCCCCCC1(CCCCCCOC(=O)C(CCCCCC)CCCCCCCC)OCC(CCCCN(C)C)O1` (centres unmarked), in series [3], the “luciferase fluorescence expression intensity” value was “significantly higher”. Besides, in series [1], the PDI worked out at 0.07126 and the Particle size came out at 111.7 nm. The Encapsulation efficiency in series [2] is recorded as 91.45%.
Take `CCCCCCCCC(CCCCCC)C(=O)OCCCCCC1(CCCCCOC(=O)C(CCCCCC)CCCCCCCC)OCC(CCN(C)C)O1` (centres unmarked): in series [1], the PDI worked out at 0.1372 and the Particle size is on record as 64.56 nm. Moreover, the Encapsulation efficiency in series [2] was 95.50%.
The corresponding values for `CCCCCCCCC(CCCCCC)C(=O)OCCCCCCC1(CCCCCCOC(=O)C(CCCCCC)CCCCCCCC)OCC(CCN(C)C)O1` (centres unmarked) are 0.09896, 69.74 nm and 95.88%.
Consider `CCCCCCCCCCC(=O)OCCCCCCC1(CCCCCCOC(=O)C(CCCCCC)CCCCCCCC)OCC(CCCCN(C)C)O1` (centres unmarked), for which the “luciferase fluorescence expression intensity” value in series [3] was “significantly higher”. In series [1], the PDI stood at 0.04995 and the Particle size was 116.9 nm. In series [2], the Encapsulation efficiency came out at 97.16%.
